Measured values taken from patent publication US20180339016A1 (priority 2015, published 2018).

Tested on: Human red blood cells
Experiment: not given
Conditions: previously examined peptide; cited from earlier work

| Sequence | hemolytic activity |
| --- | --- |
| RAGLQFPVGRVHRLLRK [buforin 5-20] | no hemolytic activity |

Tested on: Human red blood cells
Experiment: Hemolysis assay (MHC)
Format: cell-based
Conditions: at a concentration of at least 100 microM
Description: Cytotoxicity for mammalian cells was evaluated by a hemolysis assay. Human red blood cells were washed three times with PBS and suspended in PBS buffer to 5 v/v % to make 5% hematocrit. The peptide was diluted with 2-fold PBS, and then 5% hematocrit was added thereto. The sample was incubated in a 37° C. incubator for 3 hours and centrifuged at 1400 rpm for 5 minutes. The supernatant was transferred to a flat-bottom 96-well plate, and the UV absorbance at 405 nm (background 700 nm) was measured. As a positive control, distilled water was used, and as a negative control, PBS was used.

| Sequence | hemolysis |
| --- | --- |
| LKKLLKLPKKLLKL [LK-L8P] | no hemolysis |

Same assay, conditions: peptide concentration required for 10% hemolysis in hRBCs

| Sequence | MHC [μM] (minimum hemolytic concentration) |
| --- | --- |
| KLLKLPKKLLKLLK [KL-L6P] | 1300 µM |
| LKKPLKLLKKPLKL [LK-L4PL11P] | >1280 µM |
| KLLKLLKKPLKLLK [KL-L9P] | 1300 µM |
| KLLKLLKKLLKLLK | 1.25 µM |
| LKKLLKPLKKLLKL [LK-L7P] | 160 µM |
| LKKLLKLLKKLPKL [LK-L12P] | 160 µM |
| LKKPPKLLKKLLKL [LK-L4PL5P] | >1280 µM |
| LKKLLKLPKKLLKL [LK-L8P] | 1280 µM |
| KLLKLLKKLPKLLK [KL-L10P] | 120 µM |
| LKKLPKLPKKLLKL [LK-L5PL8P] | >1280 µM |
| LKKLLKPLKKPLKL [LK-L7PL11P] | >1280 µM |
| KLLKLLKPLLKLLK [KL-K8P] | 1.2 µM |
| KLLKLLKKLLKPLK [KL-L12P] | 320 µM |
| LKKLLPLLKKLLKL [LK-K6P] | 0.60 µM |
| KLLKLLKKLLKLPK [KL-L13P] | 40 µM |
| LKKPLKLLKKLLKL [LK-L4P] | 160 µM |
| KLLKPLKKLLKLLK [KL-L5P] | 160 µM |
| KLPKLLKKLLKLLK [KL-L3P] | 40 µM |
| LKKLLKLLKKLLKL | 0.3 µM |
| LKKPLKLPKKLLKL [LK-L4PL8P] | >1280 µM |
| LKKLLKPPKKLLKL [LK-L7PL8P] | >1280 µM |
| LKKLLKLLKKPLKL [LK-L11P] | >1280 µM |
| KPLKLLKKLLKLLK [KL-L2P] | 20 µM |
| LKKLPKLLKKPLKL [LK-L5PL11P] | >1280 µM |
| LKKLLKLLKPLLKL [LK-K10P] | 0.60 µM |
| KLLKLLPKLLKLLK [KL-K7P] | 1.2 µM |
| LKKLLKLLPKLLKL [LK-K9P] | 0.60 µM |
| LKKLLKLLKKPPKL [LK-L11PL12P] | >1280 µM |
| LKKLLKLPKKPLKL [LK-L8PL11P] | >1280 µM |
| LKKLPKLLKKLLKL [LK-L5P] | 160 µM |

Tested on: not listed separately
Experiment: CD alpha-helical content
Format: physicochemical
Conditions: membrane conditions

| Sequence | alpha-helical content |
| --- | --- |
| KLLKLLKKPLKLLK [KL-L9P] | 70% |
| KLLKLLKKDLKLLK [KL L9D] | 50% |
| LKKLLKPPKKLLKL [LK-L7PL8P] | 60% |
